This data set can be described thus: Comparable stressing stability study at 60° C. (total degradation impurities by HPLC). Format: physicochemical. To be noted: for Total degradation impurities: 60° C. The procedure: The degradation impurities are determined after a specific amount of time of incubation by means of HPLC.
The term “degradation impurities”, as used herein, is to be understood such a sample of the relevant product is subjected to HPLC analysis and calculation of the content of impurities in Vinorelbine is performed according to the method described in European Pharmacopoeia 7.0.
HPLC analysis and calculation of the content of impurities in Vinorelbine were performed according to the method described in European Pharmacopoeia 7.0.

We go through one substance from patent US20190092792A1, “VINORELBINE MONOTARTRATE AND ITS PHARMACEUTICAL USE” (priority 2016, published 2019).

On to “vinorelbine monotartrate isopropanol solvate”, for which the Total degradation impurities result (1 week) is on record as “LT 0.05%”, the Total degradation impurities (3 weeks) came out at 0.05% and the Total degradation impurities (8 weeks) is recorded as 0.15%. Further, the “chemical degradation (in words)” value (one week storage at 60° C.) is “didn't show any chemical degradation”.
